Test results from US10092621B2 (dated 2018).

With ulimorelin the “moderate AE meeting protocol-defined stopping criteria (at least 2 subjects)” value (healthy volunteers; 300 μg/kg q8H) was “infusion site irritation”, the Dose limiting toxicity (healthy volunteers; SAD part of the study (600, 900, 1200 μg/kg)) was “not achieved” and the “single ascending dose at which mild heart rate slowing first manifested” value (healthy volunteers; healthy subjects, SAD) was 0.6 mg/kg. The “Cpfree at Tmax (Cmaxfree)” value (at 600 μg/mL (so in the source), dialysis of plasma from healthy volunteers, TQT study) was 10 to 25 ng/mL and the “Total Cmax” value (mean, healthy subjects, 30 minute IV infusion of 600 μg/kg) was 7900 ng/mL.
